In PubChem BioAssay AID878 (University of Pittsburgh Molecular Library Screening Center, 2007):
The entries are a selection whose mix differs from that of the whole data set. The source made the active and inactive calls.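 The calls were made as follows: active = activation of at least 50% relative to the plate's high and low controls in the primary single-dose screen; inactive = activation below 50%.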

Assay: compounds producing H2O2 with reducing agent – biochemical, NIH compound library profiling, artefact control for MLSCN library redox annotation, primary screen (AID 878);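 also: compound incubated with DTT at 0.8 mM final as the reducing agent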
Conditions: DTT-dependent redox cycling H2O2, phenol red/HRP absorbance; at 10 µM; active compounds read high; 100% = 100 µM peroxide control, 0% = buffer
For `CCc1ccc(OP(C)(=O)Nc2cccnc2)cc1` (configuration not stated), the activation was inactive: -2.1%.
In the case of `CCOP(C)(=S)SCC(=O)NC(C)(CC)C(=O)O` (configuration not stated), the activation is reported as inactive: 3.23%.
